Laboratory results: PubChem BioAssay AID743279 (National Center for Advancing Translational Sciences (NCATS), 2014)
Only a part is listed here, and it is no random draw. Inconclusive results are not listed. Activity calls are given as the source filed them. Cut-off read from the data, not from the text of the source: active = activity change below about -50%; inconclusive = mostly about -30% to -49%; inactive = weaker than that.

Experiment: qHTS for Inhibitors of Inflammasome Signaling: IL-1-beta AlphaLISA Primary Screen
Settings: THP-1 LPS/ATP IL-1B secretion, 16 h; at 57.5 µM, hits give low values
Text: Inflammasomes are a set of intracellular multi-protein complexes that enable autocatalytic activation of inflammatory caspases and drive the innate immune response to counter harmful agents. […] A qHTS assay, based on AlphaLISA technology, was developed to screen the Molecular Libraries Small Molecule Repository (MLSMR) to look for novel inflammasome inhibitors. The assay detects IL-1B using AlphaLISA anti-IL-1B acceptor and donor beads. A decreased emission signal, indicating reduced IL-1B secretion, is the desired outcome for this assay. NIH Chemical Genomics Center [NCGC] NIH Molecular Libraries Probe Centers Network [MLPCN] MLPCN Grant: MH095513 Assay Provider: Shyam Biswal Ph.D., Johns Hopkins University Immunity. 2012 Jul 27;37(1):85-95. PMID: 22819042 [2] Curr Pharm Des. 2012;18(16):2320-8. PMID: 22390695
Three microliters containing 3000 THP-1 cells were dispensed into the wells of solid, white, tissue culture treated Greiner 1,536-well plates. Library compounds and positive control, Glyburide, were pin-transferred (23 nL) by a Kalypsys pin-tool equipped with a 1,536-pin array, resulting in final compound concentration ranges of 2.5 nM to 57.5 uM. After 1 hr of cell culture incubation (37 °C, 5% CO2), 1 microL of 1 microg/mL lipopolysaccharide (250 ng/mL, final) and 5 mM ATP (1.25 mM, final) were added to stimulate the cells. After 16 hr of cell culture incubation with the compounds, 1.5 uL of anti-IL-1B acceptor beads (6 ug/mL, final) and biotinylated antibody (0.6 nM, final) were added to the plate, followed by a 1 hr incubation at ambient temperature. To detect the secreted IL-1B, 1.5 uL of AlphaLISA SA-Donor beads (24 ug/mL, final) were added, followed by 30 min of incubation in the dark at ambient temperature. The AlphaLISA signal was read by a PerkinElmer EnVision plate reader with an ultrasensitive luminescence detector and 1536 Plate HTS AlphaScreen aperture (excitation of 680nm and emission of 615nm).
% is set by controls: 0 for no effect and ±100 for the full control effect.

Compound	activity change
N#Cc1ccc(C(=O)NCC2(N3CCCCC3)CCCCC2)cc1	inactive: -9.11%
CC(C)(C)OC(=O)N1CCC(N(C(=O)c2ccccc2)c2ccc(Cl)cc2)CC1	active
CCOC(=O)C(CC)C1=NC(C)(C)Cc2ccccc21.O=[N+]([O-])c1cc([N+](=O)[O-])c(O)c([N+](=O)[O-])c1 (stereo unspecified)	inactive: 15.2%
CN(C)C1(CNC(=O)c2cccc(C#N)c2)CCCCC1	inactive: 17.1%
Cc1cc(N(CCCl)CCCl)ccc1C=O	inactive: 5.08%
CCCN1CCC(Nc2cc(OC)cc(OC)c2)CC1	inactive: -8.92%
c1ccc(CN2CCC(Nc3ccccc3)CC2)cc1	inactive: -3.67%
CC(C)(C)n1nnnc1C(c1cccc2ccccc12)N1CCC(n2c(=O)[nH]c3ccccc32)CC1 (stereo unspecified)	active
COc1cc(C(=O)NCC2(N3CCOCC3)CCCCC2)cc(OC)c1C	inactive: 13.4%
CCCCn1nnnc1C(c1ccccc1)N1CCC(n2c(=O)[nH]c3ccccc32)CC1 (stereo unspecified)	inactive: -8.46%
O=C(NCC1(N2CCOCC2)CCCCC1)c1cc(Br)ccc1Cl	inactive: -10.7%
O=c1[nH]c2ccccc2n1C1CCN(C(c2cccs2)c2nnnn2C2CCCCC2)CC1 (stereo unspecified)	inactive: -19.4%
O=c1[nH]c2ccccc2n1C1CCN(C(c2ccnc3ccccc23)c2nnnn2C2CCCC2)CC1 (stereo unspecified)	inactive: 0%
COc1ccc(C(=O)NCC2(N3CCOCC3)CCCCC2)cc1OC	inactive: -23.6%
CCOC(=O)N1CCC(Nc2ccc(C)cc2)CC1	inactive: -4.17%
N/C(=N\O)c1c(N)no[n+]1[O-]	inactive: 17.2%
O=C(O)c1cccc(Nc2c([N+](=O)[O-])cc([N+](=O)[O-])cc2[N+](=O)[O-])c1	inactive: -2.17%
CCc1cc(C(=O)NCC2(N3CCCCC3)CCCCC2)sc1C	active
O=C(OC1CN2CCC1CC2)C1c2ccccc2C=Cc2ccccc21 (stereo unspecified)	inactive: -25.7%

Compound	activity change
CCCCn1nnnc1C(c1cccc(OC)c1OC)N1CCC(n2c(=O)[nH]c3ccccc32)CC1 (stereo unspecified)	inactive: -29.9%
CN1CCC(Nc2ccc(F)c(Cl)c2)CC1	inactive: -3.46%
CCOc1ncccc1C(=O)NCC1(N2CCOCC2)CCCCC1	inactive: -0.586%
O=C(O)C1(Nc2ccccc2)CCN(Cc2ccccc2)CC1	inactive: 10.6%
NN(c1ccccc1)C1CCN(CCc2ccccc2)CC1	inactive: 0%
CC(C)(C)OC(=O)N1CCC(Nc2ccccc2)CC1	inactive: -16.6%
CCCOc1ccc(C(=O)NCC2(N(C)C)CCCCC2)cc1	inactive: -19.2%
COc1cccc(C(c2nnnn2C2CCCC2)N2CCC(n3c(=O)[nH]c4ccccc43)CC2)c1OC (stereo unspecified)	inactive: 0%
COc1cc(OC)cc(C(=O)NCC2(N3CCOCC3)CCCCC2)c1	inactive: 20.5%
COc1cccc(C(=O)N(c2cc(C)cc(C)c2)C2CCN(C(=O)OC(C)(C)C)CC2)c1	active
CCC(CO)(C(=O)OC1CN2CCC1CC2)c1ccccc1 (stereo unspecified)	inactive: 6.15%
CN1CCC(Nc2ccc(Cl)cc2)CC1	inactive: -13.3%
CCC(c1nnnn1C1CCCCC1)N1CCC(n2c(=O)[nH]c3ccccc32)CC1 (stereo unspecified)	inactive: -20.1%
COc1cccc(C(c2nnnn2C2CCCCC2)N2CCC(n3c(=O)[nH]c4ccccc43)CC2)c1OC (stereo unspecified)	inactive: -25.5%
CC(=O)N(c1ccccc1)C1CCNCC1	inactive: -17.6%
COc1cc(OC)cc(C(=O)NCC2(N3CCCCC3)CCCCC2)c1	inactive: -3.27%
O=c1[nH]c2ccccc2n1C1CCN(C(c2ccnc3ccccc23)c2nnnn2C2CCCCC2)CC1 (stereo unspecified)	active
Fc1ccccc1NC1CCN(Cc2ccccc2)CC1	inactive: -1.11%
Cc1ccc(Nc2c([N+](=O)[O-])cc([N+](=O)[O-])cc2[N+](=O)[O-])cc1	active: -69%

Compound	activity change
Cc1ccc(C(=O)NCC2(N3CCCCC3)CCCCC2)o1	inactive: 10.3%
Cc1ccc(NC2(C#N)CCN(Cc3ccccc3)CC2)cc1	inactive: 11.1%
CCN1CCC(Nc2cccc(F)c2)CC1	inactive: 4.38%
COc1ccc(C(c2nnnn2C2CCCCC2)N2CCC(n3c(=O)[nH]c4ccccc43)CC2)cc1 (stereo unspecified)	active
CC(C)(C)n1nnnc1C(c1ccnc2ccccc12)N1CCC(n2c(=O)[nH]c3ccccc32)CC1 (stereo unspecified)	inactive: 30.8%
Cc1ccccc1NC1(C#N)CCN(Cc2ccccc2)CC1	inactive: 8.39%
CN(C)c1ccc(C(=O)NCC2(N3CCCCC3)CCCCC2)cc1	inactive: -4.35%
Cn1c(=O)[nH]cc(N(CCCl)CCCl)c1=O	inactive: 8.91%
O=C(NCC1(N2CCCCC2)CCCCC1)c1ccco1	inactive: 8.13%
O=C1CCN(Cc2ccccc2)CC1	inactive: 5.27%
CC(C)(C)n1nnnc1C(c1ccccc1)N1CCC(n2c(=O)[nH]c3ccccc32)CC1 (stereo unspecified)	inactive: -15.9%
CCOc1ccc(C)cc1CN(CCCl)CCCl	inactive: 3.39%
COc1ccc(NC2CCN(CCc3ccccc3)CC2)c(OC)c1	inactive: -8.96%
CCOC(=O)N1CCC(Nc2ccc(F)cc2)CC1	inactive: -21.6%
O=P1(N(CCCl)CCCl)SCCCS1	inactive: 5.33%
CCCCn1nnnc1C(c1cc2ccccc2o1)N1CCC(n2c(=O)[nH]c3ccccc32)CC1 (stereo unspecified)	active
CCCCOc1ccc(C(=O)NCC2(N3CCOCC3)CCCCC2)cc1	active
O=C(NCC1(N2CCCCC2)CCCCC1)c1ccc(F)cc1	inactive: 14.4%
